Target: T1, RadA (Streptococcus pneumoniae, UniProt A0A237IXT5)
T1 sequence (A0A237IXT5 1-453): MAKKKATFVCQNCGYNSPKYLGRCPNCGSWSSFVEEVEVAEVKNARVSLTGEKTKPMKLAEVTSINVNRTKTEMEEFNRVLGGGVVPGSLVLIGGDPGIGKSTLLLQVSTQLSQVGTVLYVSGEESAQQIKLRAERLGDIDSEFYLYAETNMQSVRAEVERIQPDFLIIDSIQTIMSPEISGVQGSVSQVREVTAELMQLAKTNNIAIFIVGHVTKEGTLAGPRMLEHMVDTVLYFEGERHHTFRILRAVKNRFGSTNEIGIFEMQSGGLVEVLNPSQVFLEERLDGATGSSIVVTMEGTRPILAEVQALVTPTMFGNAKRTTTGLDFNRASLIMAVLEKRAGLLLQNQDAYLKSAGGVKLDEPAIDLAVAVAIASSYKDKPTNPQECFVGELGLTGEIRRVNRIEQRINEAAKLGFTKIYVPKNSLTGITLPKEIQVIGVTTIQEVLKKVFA
Experiment: ATPase assay, pyruvate kinase / lactate dehydrogenase coupled NADH oxidation
Conditions: 2 mM ATP, 4 mM magnesium acetate, pH 7.5, with or without ssDNA, 25, 37 or 42 °C

Nc1ncnc2c1ncn2[C@@H]1O[C@H](COP(=O)(O)OP(=O)(O)OP(=O)(O)O)[C@@H](O)[C@H]1O [ATP]
ATPase assay, pyruvate kinase / lactate dehydrogenase coupled NADH oxidation: The ATPase activity of RadA was determined using an ATP regeneration system

— PMC11612176 (The EMBO Journal, 2024)
